According to PubChem BioAssay (NCI):
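Where inhibition never reached the appropriate level, the endpoint shown equals the highest concentration tested. Otherwise, values were interpolated linearly from a five-concentration, 48-hour dose response in 96-well plates. The concentration for 50% growth inhibition is given as GI50. TGI: total growth inhibition.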

What was measured:
Test in all cases: NCI-60 cell line screen, 48 h
[1] = test system: A549 NSCLC
[2] = test system: ACHN renal
[3] = test system: CAKI-1 renal
[4] = test system: COLO 205 colon
[5] = test system: DU-145 prostate
[6] = test system: HCC-2998 colon
[7] = test system: HCT-116 colon
[8] = test system: HCT-15 colon
[9] = test system: HL-60(TB) leukemia
[10] = test system: HOP-62 NSCLC
[11] = test system: HOP-92 NSCLC
[12] = test system: HS 578T breast
[13] = test system: HT29 colon
[14] = test system: IGROV1 ovarian
[15] = test system: K-562 leukemia
[16] = test system: LOX IMVI melanoma
[17] = test system: M14 melanoma
[18] = test system: MCF7 breast
[19] = test system: MDA-MB-231 breast
[20] = test system: MDA-MB-435
[21] = test system: MDA-N
[22] = test system: NCI-H226 lung
[23] = test system: NCI-H23 lung
[24] = test system: NCI-H460 lung
[25] = test system: NCI-H522 lung
[26] = test system: NCI/ADR-RES ovarian
[27] = test system: OVCAR-3 ovarian
[28] = test system: OVCAR-4 ovarian
[29] = test system: OVCAR-5 ovarian
[30] = test system: OVCAR-8 ovarian
[31] = test system: PC-3 prostate
[32] = test system: RPMI-8226 leukemia
[33] = test system: SF-295 CNS
[34] = test system: SK-MEL-2 melanoma
[35] = test system: SK-MEL-28 melanoma
[36] = test system: SK-MEL-5 melanoma
[37] = test system: SK-OV-3 ovarian
[38] = test system: SN12C renal
[39] = test system: SNB-19 CNS
[40] = test system: SNB-75 CNS
[41] = test system: SW-620 colon
[42] = test system: T-47D breast
[43] = test system: TK-10 renal
[44] = test system: U251 CNS
[45] = test system: UACC-257 melanoma
[46] = test system: UO-31 renal

Compound CCCC[S+](N)(=O)CCC(N)P(=O)(O)O.O=[N+]([O-])c1cc([N+](=O)[O-])c([O-])c([N+](=O)[O-])c1 has a GI50 [1] of over 100 µM, a TGI [1] of over 100 µM and a GI50 [2] of over 100 µM. It also gave a TGI [2] of over 100 µM, a GI50 [3] of over 100 µM and a TGI [3] of over 100 µM. For the same compound, the GI50 [4] was over 100 µM, the TGI [4] was over 100 µM and the GI50 [5] was over 100 µM. For the same compound, the TGI [5] was over 100 µM, the GI50 [6] was over 100 µM and the TGI [6] was over 100 µM. It also gave a GI50 [7] of over 100 µM, a TGI [7] of over 100 µM and a GI50 [8] of over 100 µM. It also gave a TGI [8] of over 100 µM, a GI50 [9] of over 100 µM and a TGI [9] of over 100 µM. The GI50 [10] was over 100 µM, the TGI [10] was over 100 µM and the GI50 [11] was 92.3 µM. The TGI [11] was over 100 µM, the GI50 [12] was over 100 µM and the TGI [12] was over 100 µM. For the same compound, the GI50 [13] was over 100 µM, the TGI [13] was over 100 µM and the GI50 [14] was over 100 µM. The TGI [14] was over 100 µM, the GI50 [15] was over 100 µM and the TGI [15] was over 100 µM. The GI50 [16] was 37 µM, the TGI [16] was over 100 µM and the GI50 [17] was 77.2 µM. For the same compound, the TGI [17] was over 100 µM, the GI50 [18] was over 100 µM and the TGI [18] was over 100 µM. The GI50 [19] was over 100 µM, the TGI [19] was over 100 µM and the GI50 [20] was 6.38 µM. For the same compound, the TGI [20] was over 100 µM, the GI50 [21] was 24.4 µM and the TGI [21] was 63.4 µM. It also gave a GI50 [22] of over 100 µM, a TGI [22] of over 100 µM and a GI50 [23] of over 100 µM. For the same compound, the TGI [23] was over 100 µM, the GI50 [24] was over 100 µM and the TGI [24] was over 100 µM. It also gave a GI50 [25] of over 100 µM, a TGI [25] of over 100 µM and a GI50 [26] of over 100 µM. For the same compound, the TGI [26] was over 100 µM, the GI50 [27] was over 100 µM and the TGI [27] was over 100 µM. For the same compound, the GI50 [28] was 64.2 µM, the TGI [28] was over 100 µM and the GI50 [29] was over 100 µM. The TGI [29] was over 100 µM, the GI50 [30] was over 100 µM and the TGI [30] was over 100 µM. For the same compound, the GI50 [31] was over 100 µM, the TGI [31] was over 100 µM and the GI50 [32] was over 100 µM. The TGI [32] was over 100 µM, the GI50 [33] was over 100 µM and the TGI [33] was over 100 µM. It also gave a GI50 [34] of over 100 µM, a TGI [34] of over 100 µM and a GI50 [35] of 63.9 µM. It also gave a TGI [35] of over 100 µM, a GI50 [36] of over 100 µM and a TGI [36] of over 100 µM. The GI50 [37] was over 100 µM, the TGI [37] was over 100 µM and the GI50 [38] was over 100 µM. For the same compound, the TGI [38] was over 100 µM, the GI50 [39] was over 100 µM and the TGI [39] was over 100 µM. For the same compound, the GI50 [40] was over 100 µM, the TGI [40] was over 100 µM and the GI50 [41] was over 100 µM. For the same compound, the TGI [41] was over 100 µM, the GI50 [42] was over 100 µM and the TGI [42] was over 100 µM. For the same compound, the GI50 [43] was over 100 µM, the TGI [43] was over 100 µM and the GI50 [44] was over 100 µM. The TGI [44] was over 100 µM, the GI50 [45] was over 100 µM and the TGI [45] was over 100 µM. It also gave a GI50 [46] of over 100 µM and a TGI [46] of over 100 µM.
